From PubChem BioAssay AID1259333 (Broad Institute, 2017)

Tested on: cytotoxicity, CellTiter-Glo ATP luminescence
Test: cell cytotoxicity, dose response, cytotoxicity control, CellTiter-Glo (AID 1259333)

## CCC1=CC2Cc3nc4ccc(Cl)cc4c(N)c3C(C1)C2 (stereo unspecified)
  AC50: 8.01 µM
